The source made the active and inactive calls. No cut-off for these calls is given here.
Biological target: DNA repair nuclease/redox regulator APEX1 (Homo sapiens, UniProt P27695)
Test: Inhibition of Ape1/ref-1 endonuclease activity up to 100 uM

Chains of the proteins cited; added tags and fusions are not shown.
UniProt P27695, whole entry: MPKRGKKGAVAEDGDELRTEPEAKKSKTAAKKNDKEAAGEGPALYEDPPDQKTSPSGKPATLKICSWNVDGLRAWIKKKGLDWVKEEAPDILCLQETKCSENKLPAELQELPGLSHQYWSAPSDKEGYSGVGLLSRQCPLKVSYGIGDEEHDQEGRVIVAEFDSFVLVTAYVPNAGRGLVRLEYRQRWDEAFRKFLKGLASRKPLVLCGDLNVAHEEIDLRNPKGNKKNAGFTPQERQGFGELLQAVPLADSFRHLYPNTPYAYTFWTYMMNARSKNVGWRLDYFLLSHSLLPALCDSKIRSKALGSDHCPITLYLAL

C/C(=C\C1=C(Br)C(=O)c2ccccc2C1=O)C(=O)O
inhibition: inactive

Source: ChEMBL document CHEMBL1156823, “Design and synthesis of novel quinone inhibitors targeted to the redox function of apurinic/apyrimidinic endonuclease 1/redox enhancing factor-1 (Ape1/ref-1)” (J Med Chem, 2010)
